Laboratory results published in patent publication US20190359697A1 (Scripps Research, published 2019).

By UniProt entry, the sequences of proteins in these tests, tags left out. Residues count along the entry.
UniProt P15391, 20-556: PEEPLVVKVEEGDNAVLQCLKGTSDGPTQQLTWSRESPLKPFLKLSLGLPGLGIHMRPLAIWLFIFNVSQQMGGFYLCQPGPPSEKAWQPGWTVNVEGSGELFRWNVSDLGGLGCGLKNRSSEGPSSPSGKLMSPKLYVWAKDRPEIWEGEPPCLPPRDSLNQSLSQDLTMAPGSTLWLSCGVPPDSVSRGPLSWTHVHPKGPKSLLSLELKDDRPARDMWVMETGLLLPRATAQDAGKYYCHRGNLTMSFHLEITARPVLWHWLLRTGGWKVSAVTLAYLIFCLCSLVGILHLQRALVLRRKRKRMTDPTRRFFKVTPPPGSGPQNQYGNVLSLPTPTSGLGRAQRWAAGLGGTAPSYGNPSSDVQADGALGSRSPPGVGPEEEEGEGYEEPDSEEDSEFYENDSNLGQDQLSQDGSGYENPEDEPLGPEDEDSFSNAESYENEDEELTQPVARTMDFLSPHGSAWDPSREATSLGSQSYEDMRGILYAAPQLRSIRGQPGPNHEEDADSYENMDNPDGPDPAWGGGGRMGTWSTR

What was measured:
[1] = molecular target: CD19 (UniProt P15391); assay: flow cytometry cell binding; FIG. 8
[2] = molecular target: CD19 (UniProt P15391); assay: flow cytometry cell binding; FIG. 9; WT switch (no PNE)

FMC63 wt gave an EC50 [1] of 1.1 nM.
murine FMC63 WT showed an EC50 [2] of 0.971 nM.
